NALP1 yeast inh = NALP1 inflammasome inhibitors in reconstituted yeast, colorimetric, S. cerevisiae, triplicate retest. S. cerevisiae NALP1/ASC/caspase-1 growth, X-gal OD620, 72 h. actives 0.61% (n = 280,000). inhibition, % at 10 µM; in the data active = inhibition mostly above about 24%, no sharp cut-off; inactive = mostly below about 32%
UUG fidelity = yeast start codon fidelity modulation; activity score, % at 18.7 µM; actives 0.13% (n = 350,000); S. cerevisiae UUG-firefly luciferase reporter, luminescence/redox ratio; AID 602363;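 active means replicate mean at a twofold rise or more, about +100% in these data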;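 further: firefly luciferase made from a UUG start codon reports start codon fidelity; reporter light over untreated wells divided by growth signal over untreated wells; some hits fall short of that in this replicate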
MC4R barr agon = MC4R agonists recruiting beta-arrestin, primary screen, cell-based, luminescence, agonist arm of biased-ligand search | Melanocortin receptor 4 (Homo sapiens), P32245 | U2OS MC4R beta-arrestin complementation; percent of melanotan II response, DMSO zero | activation, % at 8.9 µM | actives 0.98% (n = 360,000);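 active = activation above a per-plate cutoff, the mean activation of sample wells on that plate plus 3 SD, cut at about 8% in these data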
ALR H2O2 inh = inhibitors of human ALR sulfhydryl oxidase, primary screen, biochemical, H2O2 detection, HRP-luminol luminescence, single point. inhibition, % (concentration not given with the values). 290,000 compounds, 3.8% hits. purified ALR, DTT oxidation. AID 485317, 2010;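 active means mean and each replicate at 75% or more; inconclusive means only one of the two met; inactive means neither met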;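 further: stock transfer was 7.5 nL into about 7.5 µL; 0% = neutral wells and 100% = wells with inactivated enzyme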
MC4R antag cAMP = MC4R antagonists of cAMP signaling, primary screen, cell-based, TR-FRET, antagonist arm of biased-ligand search; MC4R-expressing cells, MTII-stimulated cAMP, LANCE TR-FRET; inhibition, % at 6.5 µM; actives 0.48% (n = 360,000);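 active = inhibition above its plate's cutoff, the mean of tested wells on that plate plus 3 SD, cut at about 29% in these data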;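 also: 0% = Melanotan II alone and 100% = Melanotan II plus saturating MCL0020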
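System – human MC4R-expressing U2OS cells · Also added – Melanotan II · Dosing – one concentration, 6.5 µM nominal · Timing – 30-min compound, 1-h challenge, 1-h detection, room temperature · Measured by – Eu-cAMP/anti-cAMP TR-FRET, emission 671 nm · Replicates – singlicate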
HDAC3 inhib = HDAC3 deacetylase inhibitors, primary screen, biochemical, fluorescence, cell-free homogeneous. actives 0.15% (n = 320,000). recombinant HDAC3, fluorogenic peptide/trypsin coupled. inhibition, % at 8.3 µM. Histone deacetylase 3 (Homo sapiens), O15379. AID 2718, 2010; in the data active = inhibition above about 26%, passing the limit was not always enough
An asterisk follows results filed as active; / = no result. An excerpt weighted towards active compounds, which were near 4.2% of everything screened.

Chains of the proteins cited; added tags and fusions are not shown.
Melanocortin receptor 4 (Homo sapiens), P32245, UniProt P32245, whole entry, looked up: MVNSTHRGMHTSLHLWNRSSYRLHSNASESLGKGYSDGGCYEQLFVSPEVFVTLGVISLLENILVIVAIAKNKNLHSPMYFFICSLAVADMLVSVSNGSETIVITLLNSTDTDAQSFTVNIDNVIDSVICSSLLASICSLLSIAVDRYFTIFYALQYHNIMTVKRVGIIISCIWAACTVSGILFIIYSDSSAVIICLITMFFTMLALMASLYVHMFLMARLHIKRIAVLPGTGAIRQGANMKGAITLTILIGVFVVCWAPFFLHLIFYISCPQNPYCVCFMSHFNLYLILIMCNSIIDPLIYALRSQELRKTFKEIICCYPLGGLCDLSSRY

nr | NALP1 yeast inh | UUG fidelity | canonical_smiles | MC4R barr agon | ALR H2O2 inh | MC4R antag cAMP | HDAC3 inhib
1 | 1 | -7 | COc1ccc(CC(=O)Nc2ccc(N3CCN(c4ccc(OC)cc4)CC3)c(C#N)c2)cc1 | 8.6* | -3 | 2 | -2
2 | 2 | / | O=C(CN1CCCCC1)Nc1ccc(N2CCCCCC2)cc1 | -4 | 99* | -2 | 4
3 | 1 | -7 | O=C(CN1CCCCC1)Nc1ccccc1 | 0 | / | 9 | 1
4 | -10 | -28 | Cc1cc(C)cc(OCC(=O)Nc2ccc(N3CCN(S(C)(=O)=O)CC3)cc2)c1 | -3 | -7 | -1 | -1
5 | 16 | -19 | COc1ccc(N2CCN(c3ccc(NC(=O)c4ccc5c(c4)OCO5)cc3C#N)CC2)cc1 | 0 | / | 17 | -6
6 | 28 | -9 | COC(=O)c1cccc(NC(=O)CN2CCN(c3ccc(OC)cc3)CC2)c1 | 5 | 88* | 1 | 4
7 | -4 | 22 | COC(=O)c1ccc(NC(=O)CN2CCN(c3ccccc3)CC2)cc1 | 0 | 92* | 1 | -3
8 | 8 | -21 | COc1cc(OC)nc(NC(=O)CN2CCN(c3ccc(F)cc3)CC2)n1 | 0 | 98* | 14 | 6
9 | 6 | -17 | COc1ccc(CNC(=O)CN2CCN(c3ccc(F)cc3)CC2)cc1 | 0 | 20 | 6 | -10
10 | 2 | -6 | O=C(CN1CCCC1)Nc1ccccc1Cl | 1 | -10 | 2 | -1
11 | -2 | -31 | O=C(CN1CCN(c2ccccc2)CC1)Nc1ccccc1Cl | 2 | 98* | 19 | 0
12 | / | -17 | CCC(=O)N[C@@H]1C=C[C@@H](CC(=O)NCCN2CCCCC2)O[C@H]1CO | / | / | / | /
13 | / | 42 | COc1ccc(NC(=O)N(C)C[C@H]2Oc3ccc(NC(=O)NC(C)C)cc3C(=O)N([C@@H](C)CO)C[C@@H]2C)cc1 | / | / | / | /
14 | 7 | -4 | COc1cccc(N2CCN(CC(=O)NC(C)c3ccccc3)CC2)c1 (stereo unspecified) | -1 | 81* | 5 | 10
15 | 14 | -5 | COc1ccc(N2CCN(CC(=O)Nc3ccc(C)cc3)CC2)cc1 | 1 | 90* | 1 | -4
16 | 17 | -8 | O=C(CCN1CCN(c2ccc(Cl)cc2)CC1)Nc1ccccc1F | -2 | 88* | 1 | -1
17 | 13 | / | COc1ccc(N2CCC(CNC(=S)Nc3cccc(OC)c3)C2)cc1 (stereo unspecified) | / | 15 | / | -2
18 | 4 | -16 | O=C(CCN1CCN(c2ccccc2F)CC1)Nc1ccccc1F | -1 | 2 | -1 | 5
19 | -8 | -13 | COc1ccc(N2CCC(CNC(=O)Nc3cccc(OC)c3)C2)cc1 (stereo unspecified) | -2 | 82* | -4 | -12
20 | / | -8 | O=C(O)C[C@@H]1C[C@H]2c3cc(NC(=O)NC4CCCC4)ccc3O[C@H]2[C@@H](CO)O1 | / | / | / | /

Copied from the entries so far, five compounds:
nr | NALP1 yeast inh | UUG fidelity | canonical_smiles | MC4R barr agon | ALR H2O2 inh | MC4R antag cAMP | HDAC3 inhib
16 | 17 | -8 | O=C(CCN1CCN(c2ccc(Cl)cc2)CC1)Nc1ccccc1F | -2 | 88* | 1 | -1
17 | 13 | / | COc1ccc(N2CCC(CNC(=S)Nc3cccc(OC)c3)C2)cc1 (stereo unspecified) | / | 15 | / | -2
18 | 4 | -16 | O=C(CCN1CCN(c2ccccc2F)CC1)Nc1ccccc1F | -1 | 2 | -1 | 5
19 | -8 | -13 | COc1ccc(N2CCC(CNC(=O)Nc3cccc(OC)c3)C2)cc1 (stereo unspecified) | -2 | 82* | -4 | -12
20 | / | -8 | O=C(O)C[C@@H]1C[C@H]2c3cc(NC(=O)NC4CCCC4)ccc3O[C@H]2[C@@H](CO)O1 | / | / | / | /

Additional records:
nr | NALP1 yeast inh | UUG fidelity | canonical_smiles | MC4R barr agon | ALR H2O2 inh | MC4R antag cAMP | HDAC3 inhib
21 | / | -23 | COc1ccc(NC(=O)N(C)C[C@H]2Oc3ccc(NS(C)(=O)=O)cc3CC(=O)N([C@@H](C)CO)C[C@@H]2C)cc1 | / | / | / | /
22 | / | -2 | CCC(=O)Nc1ccc2c(c1)C(=O)N(C)C[C@H](OC)[C@@H](C)CN(C(=O)c1ccc(F)cc1)[C@@H](C)CO2 | / | / | / | /
23 | 29 | -27 | CCCOC(=O)Nc1ccc(N2CCCCC2)cc1 | -2 | 97* | 5 | -6
24 | 9 | -2 | COc1cccc(NC(=O)NCCCN2CCN(c3ccc(F)cc3)CC2)c1 | 0 | 25 | 6 | -7
25 | 20 | 5 | COc1ccc(N2CCN(CC(=O)Nc3cccc(S(=O)(=O)N4CCOCC4)c3)CC2)cc1 | -2 | 78* | 1 | -3
26 | / | 9 | CCCCC(=O)Nc1ccc(N2CCCC2)cc1 | 0 | -5 | -2 | 9
27 | 44 | -4 | O=C(CN1CCN(S(=O)(=O)c2ccc3ccccc3c2)CC1)Nc1ccc(N2CCOCC2)cc1 | -2 | / | -2 | -1
28 | 2 | -7 | COc1cccc(NC(=O)CN2CCN(c3ccc(F)cc3)CC2)c1 | -2 | 97* | 10 | 0
29 | 24 | / | O=C(CNCc1cccs1)Nc1ccc(N2CCCCCC2)cc1 | -2 | 99* | -1 | -7
30 | 6 | / | O=C(CNCc1cccs1)Nc1ccc(S(=O)(=O)N2CCCCC2)cc1 | 6 | -6 | 16 | 1
31 | / | 4 | Cc1c(C(=O)NNC(=O)c2ccccc2O)oc2ccc(Br)cc12 | 4 | 4 | -6 | -5
32 | -9 | -13 | O=C(Nc1c(C(=O)O)oc2ccc(Br)cc12)c1ccccc1 | 2 | 95* | 6 | /
33 | 30 | / | O=C(c1ccccc1)N1CCC(c2nc3c(nnn3Cc3ccccc3Cl)c(=O)[nH]2)CC1 | -2 | -4 | 3 | 4
34 | -7 | / | CCC(C)NC(=O)c1nc2c(nnn2Cc2ccccc2Cl)c(=O)[nH]1 (stereo unspecified) | -1 | 88* | 10 | 3
35 | -17 | -13 | O=C(NCc1cccs1)c1nc2c(nnn2Cc2ccccc2Cl)c(=O)[nH]1 | 0 | 95* | 4 | -1
36 | 17 | 3 | O=C(CSc1ccccc1)N1CCCC(N2CCN(c3ccccc3)CC2)C1 (stereo unspecified) | -3 | 99* | 6 | -4
37 | 20 | -11 | CCCc1cc(C(=O)N2CCCC(N3CCN(c4ccc(F)cc4)CC3)C2)no1 (stereo unspecified) | 0 | 98* | 0 | 0
38 | 6 | -28 | CSCC(=O)N1CCCC(N2CCN(c3ccc(F)cc3)CC2)C1 (stereo unspecified) | 0 | 59 | 2 | -4
39 | 18 | 11 | O=C(C1CCOCC1)N1CCCC(N2CCN(c3ccc(F)cc3)CC2)C1 (stereo unspecified) | -1 | 94* | -4 | -9
40 | 7 | -11 | O=C(c1ccccn1)N1CCCC(N2CCN(c3ccc(F)cc3)CC2)C1 (stereo unspecified) | -3 | 97* | 1 | 3
41 | 4 | -14 | O=C(C1CCOCC1)N1CCCC(N2CCN(c3cccc(Cl)c3)CC2)C1 (stereo unspecified) | -1 | 2 | 13 | -4
42 | / | -5 | O=C(Cc1ccncc1)NCC[C@@H]1CC[C@@H](NC(=O)C2CCCC2)[C@H](CO)O1 | / | / | / | /
43 | / | 92 | COc1ccc(S(=O)(=O)N(C)C[C@@H]2OCCCC[C@H](C)Oc3ccc(N(C)C)cc3C(=O)N([C@H](C)CO)C[C@@H]2C)cc1 | / | / | / | /
44 | / | 2 | CCC(=O)N1C[C@@H](C)[C@H](OC)CN(C)C(=O)c2cc(NC(=O)C3CCCCC3)ccc2OC[C@@H]1C | / | / | / | /
45 | / | -7 | CC(C)c1cn(CC[C@@H]2CC[C@H](NS(=O)(=O)Cc3ccccc3)[C@@H](CO)O2)nn1 | / | / | / | /
